# Test results as given in publication PMC7723054.
# This is one part of the list.
# T1: LIN28A (human?, UniProt Q9H9Z2 1-209)
# T1 sequence: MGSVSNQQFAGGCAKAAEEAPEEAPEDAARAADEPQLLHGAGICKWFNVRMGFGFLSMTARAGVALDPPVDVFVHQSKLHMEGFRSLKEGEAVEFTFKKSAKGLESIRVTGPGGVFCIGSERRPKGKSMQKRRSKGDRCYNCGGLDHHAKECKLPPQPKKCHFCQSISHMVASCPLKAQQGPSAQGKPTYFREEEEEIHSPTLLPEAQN
# T2: CIRBP (Homo sapiens, UniProt Q14011 1-172)
# T2 sequence: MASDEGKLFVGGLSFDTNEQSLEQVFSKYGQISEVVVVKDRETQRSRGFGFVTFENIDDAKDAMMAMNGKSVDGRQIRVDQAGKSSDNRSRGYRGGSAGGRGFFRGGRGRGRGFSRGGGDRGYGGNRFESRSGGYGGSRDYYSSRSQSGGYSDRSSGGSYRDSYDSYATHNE
# T3: DHX36 (Homo sapiens, UniProt Q9H2U1 1-1008)
# T3 sequence: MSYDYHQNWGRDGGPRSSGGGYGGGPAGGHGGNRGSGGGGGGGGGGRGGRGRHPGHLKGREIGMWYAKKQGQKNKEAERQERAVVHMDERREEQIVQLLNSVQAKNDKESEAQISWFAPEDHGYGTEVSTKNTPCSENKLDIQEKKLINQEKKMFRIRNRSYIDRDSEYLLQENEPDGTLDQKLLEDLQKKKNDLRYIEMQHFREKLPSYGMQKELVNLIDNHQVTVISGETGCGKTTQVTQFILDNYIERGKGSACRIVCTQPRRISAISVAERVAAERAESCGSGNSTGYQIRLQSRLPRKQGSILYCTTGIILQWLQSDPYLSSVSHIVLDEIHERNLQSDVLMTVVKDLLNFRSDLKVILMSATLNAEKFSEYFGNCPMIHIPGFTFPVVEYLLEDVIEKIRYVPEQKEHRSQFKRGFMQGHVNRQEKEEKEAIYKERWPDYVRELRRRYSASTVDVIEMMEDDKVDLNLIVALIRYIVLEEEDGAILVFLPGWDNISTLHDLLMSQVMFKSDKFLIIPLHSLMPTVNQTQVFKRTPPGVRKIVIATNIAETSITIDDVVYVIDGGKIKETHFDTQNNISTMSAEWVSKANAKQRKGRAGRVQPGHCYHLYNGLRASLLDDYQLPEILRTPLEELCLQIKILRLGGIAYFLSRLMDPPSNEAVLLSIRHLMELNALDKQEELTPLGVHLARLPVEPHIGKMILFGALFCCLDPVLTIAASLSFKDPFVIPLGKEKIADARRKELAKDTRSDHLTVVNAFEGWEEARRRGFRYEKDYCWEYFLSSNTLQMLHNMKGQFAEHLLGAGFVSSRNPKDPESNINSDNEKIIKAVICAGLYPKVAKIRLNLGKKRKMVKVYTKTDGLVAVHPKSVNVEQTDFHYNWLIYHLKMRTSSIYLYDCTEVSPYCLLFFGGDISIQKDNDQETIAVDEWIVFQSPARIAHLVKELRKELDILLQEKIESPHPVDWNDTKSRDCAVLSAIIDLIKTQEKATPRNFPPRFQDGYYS
# B1: PARIS_ID20 (structured_RNA)
# RNA: GGGAAAGCAAUAACUGUGCCGAUGAGUCGGUGUACGAAGUUUCAGCUUUUCUAGUGAUGGCUUUGAGGUUAUUUGCAGUUUCCUAGCCAUCUCAAAGUGUGCUGCGGGGAGCUGAAGCUUCGUGCAC
# B2: hsa-mir-6738 (structured_RNA)
# RNA: GGGAGUGAUGGAAUGAAUGCGAACCGCAGGUGUACGAAGUUUCAGCCAGGGGUUCUGAUAAACCCUUCGCUGAAGCUUCGUGCAC
# B3: hsa-mir-4703 (structured_RNA)
# RNA: GGGAAUCUUCGAGCACGGCAGUUCAAACGGUGUACGAAGUUUCAGCUAUAGUGUGUUUGAUUUGCACUGUAGCUGAAGCUUCGUGCAC
# B4: hsa-mir-1307 (structured_RNA)
# RNA: GGGAAGUCUUGAUACUGUAACCCGGUGGGGUGUACGAAGUUUCAGCGGCUCGUCUGUGUUGCCAAUCGACUCGCUGAAGCUUCGUGCAC
# B5: hsa-mir-5096 (structured_RNA)
# RNA: GGGAGGAAGCGAAAUAUCACAAACGGAAGGUGUACGAAGUUUCAGCAGGCUGGUCUCAAACUCCUGCUGAAGCUUCGUGCAC
# B6: hsa-mir-4717 (structured_RNA)
# RNA: GGGACCGACAAUGGAGGGACCCUUAUGCGGUGUACGAAGUUUCAGCGUGUAGGGGUGGCUACACGCUGAAGCUUCGUGCAC
# B7: hsa-mir-34b (structured_RNA)
# RNA: GGGACGCUACUAGUGGUAUAUUGGACAAGGUGUACGAAGUUUCAGCAUUGUACUGUGGUGGUUACAAUGCUGAAGCUUCGUGCAC
# B8: hsa-mir-6793 (structured_RNA)
# RNA: GGGAGCUCAUCGGAAGUGAAUCCGUUAUGGUGUACGAAGUUUCAGCGGGUGAUACACAAGCCUGACCCUCCCGCUGAAGCUUCGUGCAC
# B9: hsa-mir-555 (structured_RNA)
# RNA: GGGACGAGUGCAAAUGUGGCAUUAUCGAGGUGUACGAAGUUUCAGCCCUUUGUGAGCAGUGUGACCCAAGGCCUGUGGACAGGGGCUGAAGCUUCGUGCAC
# B10: hsa-mir-4321 (structured_RNA)
# RNA: GGGACGAGCAAACUGAUGAGUUUGGCACGGUGUACGAAGUUUCAGCGAGACACCCGCUACCUGGUGUUGCUGAAGCUUCGUGCAC
# B11: hsa-mir-630 (structured_RNA)
# RNA: GGGAAAGAGUGGAGCACCUUCUUAAUACGGUGUACGAAGUUUCAGCUAUUUUGUUAUUCUGGUCACAGAAUGACCUAGUAGCUGAAGCUUCGUGCAC
# B12: hsa-mir-4280 (structured_RNA)
# RNA: GGGAUUCGUAGCAGACAAAGCGAGGUGCGGUGUACGAAGUUUCAGCGAGCCUUAAAGGAUGAGGUAGCUGAAGCUUCGUGCAC
# B13: PARIS_ID35 (structured_RNA)
# RNA: GGGAAGACGUUAGAUGGACUCCGUGACCGGUGUACGAAGUUUCAGCGUGCUGCGGGGAUCUCUUUUGCAUCCCUCUGGGUGCAGAGCUGAGGCACCCAGAGGCAGUGUCCAGAGGAGGCAGCAUGCUGAAGCUUCGUGCAC
# B14: hsa-mir-1286 (structured_RNA)
# RNA: GGGAACGGUACUGGACUUGAAAUACCGUGGUGUACGAAGUUUCAGCGGCUGCUGGAUUGAAUUAGCUGCAGCUGAAGCUUCGUGCAC
# B15: hsa-mir-4253 (structured_RNA)
# RNA: GGGAUGUACAAUCCUGCCCACGUACGGAGGUGUACGAAGUUUCAGCCCCUAGGACUUACUUGUGCAGGGGCUGAAGCUUCGUGCAC
# B16: hsa-mir-181c (structured_RNA)
# RNA: GGGAAUGUAGGGAUCUCCUCACCGCUGCGGUGUACGAAGUUUCAGCGAGUUUGGGCAGCUCAGGCAAACCGCUGAAGCUUCGUGCAC
# B17: hsa-mir-4650-1_4650-2 (structured_RNA)
# RNA: GGGACACUAGCCGGCGCGAAGGUUAAUUGGUGUACGAAGUUUCAGCACCUUCCAAGGCUCAGAAGGUGCUGAAGCUUCGUGCAC
# B18: hsa-mir-23c (structured_RNA)
# RNA: GGGAAAGGGCUACGGCGAAAGUGUCGUGGGUGUACGAAGUUUCAGCUGAGUGGCAUAAUCAGAGUACAAUUUGAGUCAUGCCCAUACAUCAGCUGAAGCUUCGUGCAC
# B19: hsa-mir-3684 (structured_RNA)
# RNA: GGGAACAGUGACCUGAGGCCUAAUUGUUGGUGUACGAAGUUUCAGCUUAACAUGUUGAGCAUUACUCAUGUUAGGCUGAAGCUUCGUGCAC
# B20: hsa-mir-6499 (structured_RNA)
# RNA: GGGACGGAAUAGUAGCAGGCAUCGAGCGGGUGUACGAAGUUUCAGCUGCAGUUCUGUUGGGUGACAGCAGCUGAAGCUUCGUGCAC
# B21: NEAT1_ParasoR_ID50 (structured_RNA)
# RNA: GGGAAACGAAUGAUAAGGUAGAUUCCGUGGUGUACGAAGUUUCAGCGAAAUGUUCUAUUCAGUGGCUUUUAGUAUAUUUGCUAUGUUGUGCAACCAUCGACACUAUCCAUUUCUAGAACUUUUUCGCUGAAGCUUCGUGCAC
# B22: hsa-mir-3972 (structured_RNA)
# RNA: GGGAGACUUUGUAAGGCGGUCUUAGGACGGUGUACGAAGUUUCAGCGCAGUCCUGUGGGAAUGAGAGAUGCCAAACUGGACCUGCGCUGAAGCUUCGUGCAC
# B23: hsa-mir-329-1 (structured_RNA)
# RNA: GGGACAUCUCCAAUUCAGCACGACCGGCGGUGUACGAAGUUUCAGCUGUUUCUUUAAUGAGGACGAAACAGCUGAAGCUUCGUGCAC
# B24: hsa-mir-3192 (structured_RNA)
# RNA: GGGAAACAAGGCGCUAUGAAAUGGAUACGGUGUACGAAGUUUCAGCAGUGGAAAAAGUUCUUUUCUUCCUCUGCUGAAGCUUCGUGCAC
# B25: hsa-mir-194-1 (structured_RNA)
# RNA: GGGAUACAUUUGAGGGAGUUGCCACAUAGGUGUACGAAGUUUCAGCUGGACUGUGUACCAAUUUCCAGCUGAAGCUUCGUGCAC
# Biological target: T1, LIN28A
# Test: FOREST: bead pull-down of RNA structure library v1, barcode microarray; U1A/LIN28A: 20 mM HEPES pH 7.5, 80 mM KCl, 20 mM NaCl, 10% glycerol, 2 mM DTT, 0.1 ug/uL BSA, 4 C; BG4/CIRBP/DHX36: 10 mM Tris-HCl pH 7.5, 100 mM KCl (or LiCl),; high values mean tight binding
row,Binder,binding signal [z-score]
1,B1,0.351
2,B2,0.348
3,B3,0.344
4,B4,0.341
5,B5,0.339
6,B6,0.336
7,B7,0.332
8,B8,0.332
9,B9,0.329
10,B10,0.327
11,B11,0.32
12,B12,0.319
13,B13,0.141 ± 0.235
14,B14,0.304
15,B15,0.294
16,B16,0.291
17,B17,0.282
18,B18,0.281
19,B19,0.28
20,B20,0.275
21,B21,0.273
22,B22,0.273
23,B23,0.271
24,B24,0.269
25,B25,0.268

# Biological target: T2, CIRBP
# Test: as above
row,Binder,binding signal [z-score]
1,B1,-1.08
2,B2,0.56
3,B3,0.423
4,B4,0.315
5,B5,-1.41
6,B6,-0.228
7,B7,-0.707
8,B8,-1.17
9,B9,0.518
10,B10,-0.242
11,B11,1.66
12,B12,-0.236
13,B13,-0.285 ± 0.24
14,B14,-0.276
15,B15,-1.27
16,B16,0.209
17,B17,0.188
18,B18,2.24
19,B19,1.13
20,B20,0.368
21,B21,-0.0829
22,B22,-1.45
23,B23,0.321
24,B24,2.54
25,B25,0.498

# Biological target: T3, DHX36
# Test: as above
row,Binder,binding signal [z-score]
1,B1,-0.331
2,B2,-0.122
3,B3,-0.134
4,B4,0.705
5,B5,1.73
6,B6,0.214
7,B7,-0.0441
8,B8,-0.458
9,B9,0.0992
10,B10,-0.133
11,B11,-0.291
12,B12,-0.115
13,B13,-0.112 ± 0.609
14,B14,0.346
15,B15,0.426
16,B16,0.0973
17,B17,0.911
18,B18,0.823
19,B19,-0.29
20,B20,-0.0979
21,B21,-1.17
22,B22,0.743
23,B23,-0.533
24,B24,0.534
25,B25,-0.316
